{
  "source": "patent US8569336B2",
  "about": "“Compounds for the treatment of inflammatory disorders” (priority 2008, dated 2013)",
  "system": "TNF-α production from human whole blood",
  "experiment": "Inhibition of TNF-α production from human whole blood (hWBA), LPS stimulated, ELISA",
  "assay_type": "cell-based",
  "settings": "read-out: hWBA (IC50), LPS-stimulated human whole blood, TNF-α by ELISA",
  "note": "pIC50: −log10 of the molar value.",
  "data": [
    {"smiles": "COc1ccc2c(c1)C(=O)N(C[C@@]1(c3cc4nc(N(c5cn[nH]c5)C5CCN(C)CC5)ccc4o3)NC(=O)NC1=O)C2", "note": "[Compound 1703]", "values": [
      {"measurement": "pIC50", "value": 6.73}
    ]}
  ]
}
